This note sets out measurements from patent US8946224B2, “Substituted [1,2,4]triazolo[4,3-A]pyrazines for medicaments and pharmaceutical compositions” (Redx Pharma Limited, priority 2010, dated 2015).

In general, IC50 refers to the concentration that gives 50% inhibition.

For test [1], the target named is T1, HMG-CoA reductase (Homo sapiens, UniProt P04035).
T1 sequence (P04035 340-888 limits assumed): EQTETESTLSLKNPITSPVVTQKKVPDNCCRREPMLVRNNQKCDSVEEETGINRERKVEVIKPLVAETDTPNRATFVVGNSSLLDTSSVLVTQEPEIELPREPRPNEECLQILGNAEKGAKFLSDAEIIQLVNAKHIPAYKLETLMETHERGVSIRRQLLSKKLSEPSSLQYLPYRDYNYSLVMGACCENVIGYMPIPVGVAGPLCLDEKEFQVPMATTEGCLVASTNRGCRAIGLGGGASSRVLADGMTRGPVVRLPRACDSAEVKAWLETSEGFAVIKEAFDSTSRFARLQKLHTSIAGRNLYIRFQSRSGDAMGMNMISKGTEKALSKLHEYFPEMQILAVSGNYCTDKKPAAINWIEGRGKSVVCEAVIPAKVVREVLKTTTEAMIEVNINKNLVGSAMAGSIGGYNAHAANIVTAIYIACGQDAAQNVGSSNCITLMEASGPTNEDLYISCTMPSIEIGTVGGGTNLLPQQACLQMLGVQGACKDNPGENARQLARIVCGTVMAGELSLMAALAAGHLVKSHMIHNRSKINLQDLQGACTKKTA
In words: biochemical.

The target of test [2] is T1, HMG-CoA reductase. In words: HMG-CoA Reductase assay kit (Sigma-Aldrich CS1090), decrease in absorbance at 340 nm of NADPH.

On to `CC(C)OC1C[C@H](OCc2ccccc2)C[C@@H](/C=C/c2c(-c3ccc(F)cc3)nc(N(C)S(C)(=O)=O)nc2C(C)C)O1` (some centres unmarked), for which, in test [1], the IC50 was 1 nM.
In test [1], `COC1C[C@H](OC(=O)c2cccnc2)C[C@@H](/C=C/c2c(-c3ccc(F)cc3)nc(N(C)S(C)(=O)=O)nc2C(C)C)O1` (some centres unmarked) yielded an IC50 of under 1 nM.
The same measure, in the same setting: the figure for `COC1C[C@H](OCc2ccccc2)C[C@@H](/C=C/c2c(-c3ccc(F)cc3)nc(N(C)S(C)(=O)=O)nc2C(C)C)O1` (some centres unmarked) is 22 nM.
For the compound `CC(C)c1nc(N(C)S(C)(=O)=O)nc(-c2ccc(F)cc2)c1/C=C/[C@@H]1C[C@@H](OCc2ccccc2)CC(OC(C)(C)C)O1` (some centres unmarked), the IC50 in test [2] was 4 nM.
As for `C=CCOC1C[C@H](OCc2ccccc2)C[C@@H](/C=C/c2c(-c3ccc(F)cc3)nc(N(C)S(C)(=O)=O)nc2C(C)C)O1` (some centres unmarked) [drawing 226], in test [2] (read-out: IC50 (nm), Example 2), the concentration for half-maximal inhibition (IC50) was 3 nM.
With `CC(C)c1nc(N(C)S(C)(=O)=O)nc(-c2ccc(F)cc2)c1/C=C/[C@@H](O)C[C@@H](O)CC(=O)O` [Rosuvastatin, reference compound], the half-inhibitory concentration (IC50) in test [2] (read-out: IC50 (nm), Example 2) is 4 nM; in test [1] it was 4 nM.
In test [1], `C=CCOC1C[C@H](OCc2ccccc2)C[C@@H](/C=C/c2c(-c3ccc(F)cc3)nc(N(C)S(C)(=O)=O)nc2C(C)C)O1` (some centres unmarked) [drawing 221] displayed an IC50 of 3 nM.
